Experimental data from patent US9539260B2, “Dihydro-benzo-oxazine and dihydro-pyrido-oxazine derivatives” (Novartis AG, priority 2012, dated 2017).

The chains behind the UniProt entries cited, without tags or fusion partners. Where a name states a change or a piece, a line headed by the entry shows the natural chain unless it says otherwise. A line that says so, or that is headed by a name, gives the form on record, which may keep a tag or linker.
UniProt O00329: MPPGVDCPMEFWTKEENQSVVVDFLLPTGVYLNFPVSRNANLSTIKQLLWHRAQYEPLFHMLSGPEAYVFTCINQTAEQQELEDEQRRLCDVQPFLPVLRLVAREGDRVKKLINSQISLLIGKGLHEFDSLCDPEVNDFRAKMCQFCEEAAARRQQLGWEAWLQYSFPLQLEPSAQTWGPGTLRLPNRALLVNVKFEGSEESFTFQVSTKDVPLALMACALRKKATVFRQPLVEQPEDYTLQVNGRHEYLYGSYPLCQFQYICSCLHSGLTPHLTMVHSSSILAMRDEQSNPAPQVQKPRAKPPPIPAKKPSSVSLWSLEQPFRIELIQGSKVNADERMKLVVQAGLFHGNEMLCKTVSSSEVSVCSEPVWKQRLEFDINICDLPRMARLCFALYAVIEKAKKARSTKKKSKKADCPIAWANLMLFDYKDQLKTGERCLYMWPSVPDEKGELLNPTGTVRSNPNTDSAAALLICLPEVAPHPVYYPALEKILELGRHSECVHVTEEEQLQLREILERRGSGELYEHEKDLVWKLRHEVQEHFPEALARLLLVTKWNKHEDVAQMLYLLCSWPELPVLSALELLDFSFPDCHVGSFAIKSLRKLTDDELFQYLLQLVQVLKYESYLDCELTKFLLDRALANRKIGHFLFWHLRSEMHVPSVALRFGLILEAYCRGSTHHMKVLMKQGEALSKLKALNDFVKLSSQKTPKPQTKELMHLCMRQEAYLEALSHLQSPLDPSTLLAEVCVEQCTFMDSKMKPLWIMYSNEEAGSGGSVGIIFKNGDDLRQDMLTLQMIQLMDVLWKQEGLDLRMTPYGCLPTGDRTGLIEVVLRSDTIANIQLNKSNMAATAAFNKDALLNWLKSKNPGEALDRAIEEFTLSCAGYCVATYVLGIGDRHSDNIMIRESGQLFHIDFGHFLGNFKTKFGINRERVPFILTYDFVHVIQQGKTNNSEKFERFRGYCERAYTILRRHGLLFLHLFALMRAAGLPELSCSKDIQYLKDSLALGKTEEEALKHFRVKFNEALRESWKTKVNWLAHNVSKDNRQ
UniProt P42336, other isoform, or with tags, fused parts or gaps: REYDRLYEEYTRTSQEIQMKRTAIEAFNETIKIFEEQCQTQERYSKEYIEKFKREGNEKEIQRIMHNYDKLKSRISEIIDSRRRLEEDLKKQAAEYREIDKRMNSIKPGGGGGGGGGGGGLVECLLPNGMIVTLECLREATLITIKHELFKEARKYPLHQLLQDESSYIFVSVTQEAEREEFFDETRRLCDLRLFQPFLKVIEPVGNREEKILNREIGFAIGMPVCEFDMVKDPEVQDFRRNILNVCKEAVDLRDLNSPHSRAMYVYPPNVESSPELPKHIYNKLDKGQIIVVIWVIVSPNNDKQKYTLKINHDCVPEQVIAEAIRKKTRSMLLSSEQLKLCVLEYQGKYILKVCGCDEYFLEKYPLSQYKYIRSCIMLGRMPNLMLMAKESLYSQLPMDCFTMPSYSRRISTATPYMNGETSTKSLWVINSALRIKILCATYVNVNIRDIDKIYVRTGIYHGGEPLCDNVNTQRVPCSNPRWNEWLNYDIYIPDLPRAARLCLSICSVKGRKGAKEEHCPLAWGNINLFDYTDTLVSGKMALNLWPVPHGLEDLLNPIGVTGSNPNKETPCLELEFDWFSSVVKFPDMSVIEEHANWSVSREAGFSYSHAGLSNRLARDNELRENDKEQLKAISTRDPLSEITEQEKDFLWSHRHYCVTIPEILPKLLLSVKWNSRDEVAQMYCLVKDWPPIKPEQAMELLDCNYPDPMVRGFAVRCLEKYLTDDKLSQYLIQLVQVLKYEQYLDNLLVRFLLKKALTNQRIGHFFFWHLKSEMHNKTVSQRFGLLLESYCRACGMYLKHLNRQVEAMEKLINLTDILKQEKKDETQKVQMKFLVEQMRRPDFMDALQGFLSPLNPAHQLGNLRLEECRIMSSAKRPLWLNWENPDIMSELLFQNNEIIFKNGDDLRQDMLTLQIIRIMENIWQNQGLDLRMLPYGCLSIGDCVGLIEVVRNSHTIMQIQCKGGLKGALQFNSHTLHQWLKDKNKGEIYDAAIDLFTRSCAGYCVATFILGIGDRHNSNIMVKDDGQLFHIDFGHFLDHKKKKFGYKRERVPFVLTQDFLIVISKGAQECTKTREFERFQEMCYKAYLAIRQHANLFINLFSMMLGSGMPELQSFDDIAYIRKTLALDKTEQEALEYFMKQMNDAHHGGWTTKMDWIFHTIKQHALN

What was measured:
PI3K delta = PI3K delta (Homo sapiens (Human), UniProt O00329); assay: Enzymatic PI3K delta isoform inhibition (lipid kinase activity, Kinase-Glo luminescence); format: biochemical; details: Enzymatic assay
Description: (§1) 1.1 Test of Lipid Kinase Activity […]
(§2) In a more preferred assay, the kinase reaction is performed in a final volume of 10 μl per well of a low volume non-binding CORNING, 384 well black plate (Cat. No. #3676). The final concentrations of ATP and phosphatidyl inositol (PI) in the assay are 1 μM and 10 μg/mL, respectively. The reaction is started by the addition of ATP.
The components of the assay are added per well as follows:
The Z′ value is a universal measurement of the robustness of an assay. A Z′ between 0.5 and 1.0 is considered an excellent assay.
IC50 is determined by a four parameter curve fitting routine that comes along with “excel fit”. A four parameter logistic equation is used to calculate IC50 values (IDBS XLfit) of the percentage inhibition of each compound at 8 concentrations (usually 10, 3.0, 1.0, 0.3, 0.1, 0.030, 0.010 and 0.003 μM). Alternatively, IC50 values are calculated using idbsXLfit model 204, which is a 4 parameter logistic model.
(§3) Yet alternatively, for an ATP depletion assay, compounds of the formula I to be tested are dissolved in DMSO and directly distributed into a white 384-well plate at 0.5 μl per well. […] The stopped reaction is incubated for 5 minutes and the remaining ATP is then detected via luminescence. IC50 values are then determined.

PI3K alpha = PI3K alpha (Homo sapiens (Human), UniProt P42336); assay: Enzymatic PI3K alpha isoform inhibition (lipid kinase activity, Kinase-Glo luminescence); format: biochemical; details: Enzymatic assay
Description: as §1, §2
The components of the assay are added per well as follows: […]
IC50 is determined by a four parameter curve fitting routine that comes along with “excel fit”. […] Alternatively, IC50 values are calculated using idbsXLfit model 204, which is a 4 parameter logistic model.
as §3

| IC50 (PI3K delta) [nM] | IC50 (PI3K alpha) [nM] | Structure (SMILES) |
| --- | --- | --- |
| 23 |  | CN(C)c1cc(N2CCOc3ccc(O[C@H]4CCN(C(=O)C5CCOCC5)C4)cc32)cnc1S(C)(=O)=O [Example B78, {(S)-3-[4-(5-Dimethylamino-6-methanesulfonyl-pyridin-3-yl)-3,4-dihydro-2H-benzo[1,4]oxazin-6-yloxy]-pyrrolidin-1-yl}-(tetrahydro-pyran-4-yl)-methanone] |
|  | 424 | COc1ncc(N2CCOc3ccc(O[C@H]4CCN(C(=O)c5cn(C)cn5)C4)cc32)cc1C#N [Example D1, (S)-2-methoxy-5-(6-((1-(1-methyl-1H-imidazole-4-carbonyl)pyrrolidin-3-yl)oxy)-2H-benzo[b][1,4]oxazin-4(3H)-yl)nicotinonitrile] |
